From the NIST ThermoML archive (doi:10.1016/j.fluid.2018.07.027)
Numbers after ± are expanded uncertainties.

Legend:
[1] = refractive index (Na D-line) (dimensionless); xn = mol fraction of the nth substance listed; conditions: 298.15 K, 101.3 kPa, Liquid, Standard Abbe refractometry
[2] = xn = mol fraction of the nth substance listed; conditions: 298.15 K, 101.3 kPa, Liquid; for speed of sound: Frequency=3 MHz, Single path-length method; for mass density: Vibrating tube method
[3] = 298.15 K, 101.33 kPa, Liquid
[4] = Boiling temperature at pressure P; conditions: 101.3 kPa; Liquid; Ebulliometric method (Recirculating still)
[5] = refractive index (Na D-line) (dimensionless); conditions: 298.15 K; 101.33 kPa; Liquid; Standard Abbe refractometry

CCCCOCCCC [dibutyl ether] + CC(C)CC(C)(C)C
Conditions	mass density, [2] [kg/m3]	refractive index, [1]	speed of sound, [2] [m/s]
x2 = 0	763.75 ± 0.91	1.39652 ± 0.00033	1162 ± 1.1
x2 = 0.0503	760.07 ± 0.91	1.39618 ± 0.00033	1158.3 ± 1.1
x2 = 0.1016	756.32 ± 0.91	1.39584 ± 0.00033	1154.5 ± 1.1
x2 = 0.1493	752.81 ± 0.91	1.39551 ± 0.00033	1151 ± 1.1
x2 = 0.1972	749.28 ± 0.91	1.39519 ± 0.00033	1147.4 ± 1.1
x2 = 0.2496	745.31 ± 0.91	1.39483 ± 0.00033	1142.3 ± 1.1
x2 = 0.3005	741.56 ± 0.91	1.39448 ± 0.00033	1139.1 ± 1.1
x2 = 0.3509	737.8 ± 0.91	1.39411 ± 0.00033	1135.2 ± 1.1
x2 = 0.4013	733.95 ± 0.91	1.39374 ± 0.00033	1130.7 ± 1.1
x2 = 0.451	730.21 ± 0.91	1.39338 ± 0.00033	1127.1 ± 1.1
x2 = 0.4994	726.58 ± 0.91	1.39304 ± 0.00033	1123.7 ± 1.1
x2 = 0.5474	722.91 ± 0.91	1.39267 ± 0.00033	1120.3 ± 1.1
x2 = 0.5978	719.07 ± 0.91	1.39227 ± 0.00033	1116.2 ± 1.1
x2 = 0.6491	715.12 ± 0.91	1.39186 ± 0.00033	1112.1 ± 1.1
x2 = 0.7016	711.08 ± 0.91	1.39146 ± 0.00033	1107.8 ± 1.1
x2 = 0.7505	707.28 ± 0.91	1.39105 ± 0.00033	1103.8 ± 1.1
x2 = 0.8028	703.2 ± 0.91	1.39064 ± 0.00033	1099.5 ± 1.1
x2 = 0.8516	699.4 ± 0.91	1.39023 ± 0.00033	1095.4 ± 1.1
x2 = 0.8989	695.7 ± 0.91	1.38985 ± 0.00033	1091.4 ± 1.1
x2 = 0.9497	691.68 ± 0.91	1.3894 ± 0.00033	1087.1 ± 1.1

CCCCOCCCC [dibutyl ether]
[3]
Conditions	mass density [kg/m3]	speed of sound [m/s]
Single path-length method	–	1162 ± 1.1
Vibrating tube method	763.799 ± 0.91	–

Conditions	Boiling temperature at pressure P [°C]	refractive index
[4]	141.40 ± 0.05	–
[5]	–	1.39652 ± 0.00033
